Our source for the inhibition values is PubChem BioAssay AID588413 (Sanford-Burnham Center for Chemical Genomics, 2011).

Molecules are shown by their SMILES. Only a part is listed here, and it is no random draw. Some salts or complexes appear as unconnected parts, following the source record. The source made the active and inactive calls.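 How the source made its calls: active means inhibition above about 55% (limit read from the data); inactive means the rest.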

This assay is described as follows: blockers of Gli reporter signaling – luciferase luminescence, Sufu-KO-LIGHT cells, uHTS, primary screen (AID 588413).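 Further: 0% = DMSO-treated cells and 100% = wells with medium but no cells.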 Conditions: Sufu-KO-LIGHT fibroblasts, at 5 µM, hits give high values.
By inhibition is commonly meant the drop in the measured response relative to a control, in per cent. Take `CCOC(=O)c1ccc(NP(C)(=O)Oc2ccc(Cl)cc2)cc1` (configuration not stated): the inhibition is inactive: 3.83%. To `CP(=O)(OC12CC3CC(CC(C3)C1)C2)OC12CC3CC(CC(C3)C1)C2` belongs inactive: -1.37%; to `Nc1ccc2c(ccc3cccnc32)n1.O=[N+]([O-])c1cc([N+](=O)[O-])c(O)c([N+](=O)[O-])c1`, inactive: 7.32%; to `CN(C)C(=O)c1c([N+](=O)[O-])cc([N+](=O)[O-])cc1[N+](=O)[O-]`, inactive: 47.2%. On to `CC(C)(C)c1ccc(OP(C)(=O)O)cc1`, for which the inhibition is inactive: 4.04%. In the case of `COc1ccccc1OP(C)(=O)Nc1ccccc1Br` (configuration not stated), the inhibition was inactive: 2.44%. In the case of `CP(=O)(Nc1ccc(Cl)cc1)Oc1ccc(F)cc1` (configuration not stated), the inhibition is inactive: 0.55%. With `O=C(OCCCN1CCCC1)C(O)(c1ccccc1)C1CCCCC1` (configuration not stated), the inhibition was inactive: 13.3%. In the case of `COc1ccccc1OP(C)(=O)Nc1c(C)n(C)n(-c2ccccc2)c1=O` (configuration not stated), the inhibition is inactive: -0.18%.

With `CCc1ccc(OP(C)(=O)Nc2cccnc2)cc1` (configuration not stated), the inhibition is inactive: 9.39%. On to `CP(=O)(Oc1ccccc1)N1CCOC1=O` (configuration not stated), for which the inhibition is inactive: -0.43%. Regarding `COc1ccc(OP(C)(=O)Nc2ccc(Br)cc2)cc1` (configuration not stated), the inhibition was inactive: -1.44%. Regarding `CCN(CC)CC(O)COC(=O)C(O)(c1ccccc1)C1CCCCC1` (configuration not stated), the inhibition was inactive: 8.1%. As to `COc1ccccc1OP(C)(=O)Nc1ccc(C)cc1C` (configuration not stated), the inhibition was inactive: 4.04%.

As for `CP(=O)(Nc1ccccn1)Oc1ccccc1` (configuration not stated), the inhibition was inactive: -6.86%. To `CCc1ccc(OP(C)(=O)O)cc1` belongs inactive: 26.4%; to `O=[N+]([O-])c1cc([N+](=O)[O-])c(Nc2ccccn2)c([N+](=O)[O-])c1`, inactive: 12.9%; to `Cc1c(NP(C)(=O)Oc2ccc(C(C)C)cc2)c(=O)n(-c2ccccc2)n1C` (configuration not stated), inactive: -7.12%. Consider `CN(C)CCOC(=O)C(O)(c1ccccc1)C1CCCC1` (configuration not stated), for which the inhibition is inactive: 6.78%. The figure for `COc1ccccc1OP(C)(=O)Nc1ccc(Br)cc1` (configuration not stated) is inactive: 16.2%. With `CP(=O)(OCCOc1ccccc1)OCCOc1ccccc1`, the inhibition was inactive: 2.75%. For the molecule `CCCCCCCCCCCCCCCC1C[N+](C)(C)CCOP(C)(=O)O1` (configuration not stated), the inhibition is inactive: -2.04%. Consider `CP(=O)(Nc1ccc(Cl)cc1Cl)Oc1ccccc1` (configuration not stated), for which the inhibition was inactive: -5.84%. As to `COc1ccccc1OP(C)(=O)Nc1ccc(C)c(C)c1` (configuration not stated), the inhibition was inactive: 6.37%. To `COc1ccc(OP(C)(=O)Nc2ccccc2Br)cc1` (configuration not stated) belongs inactive: 4.28%; to `Cc1cc(C)cc(OP(C)(=O)Nc2cccc(C(F)(F)F)c2)c1` (configuration not stated), inactive: 7.73%. To `O=C1C(O)=C([N+](=O)[O-])C(=O)C(O)=C1[N+](=O)[O-]` belongs inactive: 1.99%; to `CP(=O)(Nc1ccccc1)Oc1ccc(F)cc1` (configuration not stated), inactive: -8.51%; to `CCCCCOc1ccc(NP(C)(=O)Oc2ccc(Cl)cc2Cl)cc1` (configuration not stated), inactive: -8.02%. As to `O=[N+]([O-])c1cc([N+](=O)[O-])c(OC2CCCCC2O)c([N+](=O)[O-])c1` (configuration not stated), the inhibition was inactive: 12.7%. As for `Cc1c([N+](=O)[O-])cc([N+](=O)[O-])c(Br)c1[N+](=O)[O-]`, the inhibition was inactive: -1.92%.

For the molecule `CCN(CC)CCCOC(=O)C(O)(c1ccccc1)C1CCCCC1` (configuration not stated), the inhibition was inactive: 8.49%.

`CCOC(=O)c1ccc(NP(C)(=O)Oc2ccc(F)cc2)cc1` (configuration not stated): the inhibition is inactive: -1.06%. Regarding `COc1ccc(OP(C)(=O)Nc2ccc(SC(F)(F)F)cc2)cc1` (configuration not stated), the inhibition is inactive: -2.31%. In the case of `COc1ccc2c(c1O)-c1c(O)c(OC)cc3c1[C@H](C2)[N+](C)(C)CC3.O=[N+]([O-])c1cc([N+](=O)[O-])c([O-])c([N+](=O)[O-])c1[O-]`, the inhibition is inactive: 0.77%. In the case of `O=C(OC1CN2CCC1CC2)c1ccc([N+](=O)[O-])cc1` (configuration not stated), the inhibition is inactive: 2.43%. In the case of `O=C(OCCN1CCN(CCOCc2ccccc2)CC1)C(O)(c1ccccc1)c1ccccc1`, the inhibition was inactive: 7.98%. To `CP(=O)(Nc1ccccc1F)Oc1ccccc1` (configuration not stated) belongs inactive: -8.3%; to `CC(C)c1ccc(OP(C)(=O)Nc2ccc(SC(F)(F)F)cc2)cc1` (configuration not stated), inactive: -3.43%. For `Cc1ccccc1NP(C)(=O)Nc1ccccc1C`, the inhibition was inactive: -4.92%. Regarding `CP(=O)(Nc1ccc2c(c1)OCCO2)Oc1ccccc1` (configuration not stated), the inhibition was inactive: -2.36%. For `CCOP(C)(=S)SCC(=O)NC(C)(CC)C(=O)O` (configuration not stated), the inhibition is inactive: -19.8%.

With `CP(=O)(Nc1ccc(SC(F)(F)F)cc1)Oc1ccc(F)cc1` (configuration not stated), the inhibition was inactive: 46%. To `Cc1c(C(c2ccc3c(c2)OCO3)c2c(C)n(C)n(-c3ccccc3)c2=O)c(=O)n(-c2ccccc2)n1C.O=[N+]([O-])c1cc([N+](=O)[O-])c(O)c([N+](=O)[O-])c1` belongs inactive: -23.8%. Consider `O=[N+]([O-])c1ccc(OP2(=O)COCCO2)cc1` (configuration not stated), for which the inhibition was inactive: -2.35%. In the case of `Cc1cc(-c2cccc3ccccc23)c(C)cn1.O=[N+]([O-])c1cc([N+](=O)[O-])c(O)c([N+](=O)[O-])c1`, the inhibition is inactive: 1.49%. In the case of `O=[N+]([O-])c1cc([N+](=O)[O-])c(NCC2CCS(=O)(=O)C2)c([N+](=O)[O-])c1` (configuration not stated), the inhibition was inactive: 3.08%.

In the case of `CN(C)CCOC(=O)C(O)(c1ccccc1)C1CCCCC1` (configuration not stated), the inhibition was inactive: -48.9%. Take `COc1ccc(NP(C)(=O)Oc2ccccc2OC)cc1` (configuration not stated): the inhibition was inactive: 1.22%. On to `COc1ccc(OP(C)(=O)Nc2cccc(Br)c2)cc1` (configuration not stated), for which the inhibition was inactive: 6.28%. The figure for `CP(=O)(Nc1ccc(SC(F)(F)F)cc1)Oc1ccccc1` (configuration not stated) is inactive: 1.77%; for `CCCOc1ccc(NP(C)(=O)Oc2ccc(Cl)cc2)cc1` (configuration not stated) it is inactive: 2.91%; for `CN1CCCCC1COC(=O)C1(O)c2ccccc2CCc2ccccc21` (configuration not stated) it is inactive: 6.63%. Take `COc1ccccc1OP(C)(=O)Nc1c(C)cccc1C` (configuration not stated): the inhibition is inactive: 12.2%. `CCOC(=O)C(CC)C1=NC(C)(C)Cc2ccccc21.O=[N+]([O-])c1cc([N+](=O)[O-])c(O)c([N+](=O)[O-])c1` (configuration not stated): the inhibition was inactive: -6.77%. Consider `O=[N+]([O-])c1cc([N+](=O)[O-])c(Nc2nnnn2CCO)c([N+](=O)[O-])c1`, for which the inhibition is inactive: -4.79%. Regarding `CC1=C2N=C(C=C3N=C(C(C)=C4[N-][C@@](C)([C@@H]5N=C1[C@](C)(CCC(=O)NC[C@@H](C)OP(=O)([O-])O[C@H]1[C@@H](O)[C@@H](n6cnc7cc(C)c(C)cc76)O[C@@H]1CO)[C@H]5CC(N)=O)[C@@](C)(CC(N)=O)[C@@H]4CCC(N)=O)[C@@](C)(CC(N)=O)[C@@H]3CCC(N)=O)C(C)(C)[C@@H]2CCC(N)=O.[C-]#N.[Co+3]`, the inhibition was inactive: 50.2%.
